Laboratory results: PMC9723946 (The Journal of Biological Chemistry, 2022)

How the values were obtained:
Test in all cases: pull-down
[1] = target: His-tagged full-length G3BP1 F33/124W (human, UniProt Q13283 1-466, F33W | F124W)
[2] = target: His-tagged full-length G3BP1 F15/124W (human, UniProt Q13283 1-466, F15W | F124W)
[3] = target: His-tagged full-length G3BP1 TripleW (F15W/F33W/F124W) (human, UniProt Q13283 1-466, F15W | F33W | F124W)
[4] = target: His-tagged full-length G3BP1 F15W (human, UniProt Q13283 1-466, F15W)
[5] = target: His-tagged full-length G3BP1 F15/33W (human, UniProt Q13283 1-466, F15W | F33W)

Measured: reduction of copurification relative to WT

B1: cytoplasmic activating/proliferation associated protein 1 (Caprin1), endogenous (natural protein)
chain: MPSATSHSGSGSKSSGPPPPSGSSGSEAAAGAGAAAPASQHPATGTGAVQTEAMKQILGVIDKKLRNLEKKKGKLDDYQERMNKGERLNQDQLDAVSKYQEVTNNLEFAKELQRSFMALSQDIQKTIKKTARREQLMREEAEQKRLKTVLELQYVLDKLGDDEVRTDLKQGLNGVPILSEEELSLLDEFYKLVDPERDMSLRLNEQYEHASIHLWDLLEGKEKPVCGTTYKVLKEIVERVFQSNYFDSTHNHQNGLCEEEEAASAPAVEDQVPEAEPEPAEEYTEQSEVESTEYVNRQFMAETQFTSGEKEQVDEWTVETVEVVNSLQQQPQAASPSVPEPHSLTPVAQADPLVRRQRVQDLMAQMQGPYNFIQDSMLDFENQTLDPAIVSAQPMNPTQNMDMPQLVCPPVHSESRLAQPNQVPVQPEATQVPLVSSTSEGYTASQPLYQPSHATEQRPQKEPIDQIQATISLNTDQTTASSSLPAASQPQVFQAGTSKPLHSSGINVNAAPFQSMQTVFNMNAPVPPVNEPETLKQQNQYQASYNQSFSSQPHQVEQTELQQEQLQTVVGTYHGSPDQSHQVTGNHQQPPQQNTGFPRSNQPYYNSRGVSRGGSRGARGLMNGYRGPANGFRGGYDGYRPSFSNTPNSGYTQSQFSAPRDYSGYQRDGYQQNFKRGSGQSGPRGAPRGRGGPPRPNRGMPQMNTQQVN
~98%: [1] | [2] | [3] | [4] | [5]
